Results taken from patent US8865894B2, “Oxazolidin-2-one compounds and uses thereof” (Novartis AG, priority 2012, dated 2014).

Protein sequences, listed by entry. Tags and fused reporters are not part of them.
UniProt P42336, whole entry: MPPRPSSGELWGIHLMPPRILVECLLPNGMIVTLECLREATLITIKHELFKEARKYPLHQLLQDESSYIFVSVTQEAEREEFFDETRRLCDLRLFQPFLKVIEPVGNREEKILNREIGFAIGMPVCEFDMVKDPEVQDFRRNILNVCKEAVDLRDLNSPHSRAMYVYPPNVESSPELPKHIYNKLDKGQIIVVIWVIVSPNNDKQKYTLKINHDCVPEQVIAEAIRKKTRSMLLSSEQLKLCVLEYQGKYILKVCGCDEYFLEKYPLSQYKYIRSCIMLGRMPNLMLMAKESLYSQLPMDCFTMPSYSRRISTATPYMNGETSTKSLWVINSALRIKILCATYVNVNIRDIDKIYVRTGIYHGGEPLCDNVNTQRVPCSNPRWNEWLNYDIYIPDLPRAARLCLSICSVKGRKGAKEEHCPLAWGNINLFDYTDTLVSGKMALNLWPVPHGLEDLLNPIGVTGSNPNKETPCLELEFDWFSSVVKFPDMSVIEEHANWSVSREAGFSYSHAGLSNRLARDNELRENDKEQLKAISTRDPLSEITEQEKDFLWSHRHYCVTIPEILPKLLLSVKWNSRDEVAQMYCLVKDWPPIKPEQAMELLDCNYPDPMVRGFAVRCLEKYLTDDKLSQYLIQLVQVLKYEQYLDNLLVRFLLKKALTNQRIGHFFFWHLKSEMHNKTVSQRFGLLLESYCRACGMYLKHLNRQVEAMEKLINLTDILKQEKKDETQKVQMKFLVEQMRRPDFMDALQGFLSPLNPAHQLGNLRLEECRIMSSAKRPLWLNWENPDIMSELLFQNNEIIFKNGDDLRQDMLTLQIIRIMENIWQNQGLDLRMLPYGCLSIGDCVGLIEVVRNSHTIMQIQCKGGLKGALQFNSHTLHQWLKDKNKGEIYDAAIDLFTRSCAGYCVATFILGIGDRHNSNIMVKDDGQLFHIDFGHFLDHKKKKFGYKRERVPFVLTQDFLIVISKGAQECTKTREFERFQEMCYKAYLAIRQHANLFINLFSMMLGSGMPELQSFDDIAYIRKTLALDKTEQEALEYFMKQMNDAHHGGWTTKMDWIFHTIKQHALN
UniProt O00329, whole entry: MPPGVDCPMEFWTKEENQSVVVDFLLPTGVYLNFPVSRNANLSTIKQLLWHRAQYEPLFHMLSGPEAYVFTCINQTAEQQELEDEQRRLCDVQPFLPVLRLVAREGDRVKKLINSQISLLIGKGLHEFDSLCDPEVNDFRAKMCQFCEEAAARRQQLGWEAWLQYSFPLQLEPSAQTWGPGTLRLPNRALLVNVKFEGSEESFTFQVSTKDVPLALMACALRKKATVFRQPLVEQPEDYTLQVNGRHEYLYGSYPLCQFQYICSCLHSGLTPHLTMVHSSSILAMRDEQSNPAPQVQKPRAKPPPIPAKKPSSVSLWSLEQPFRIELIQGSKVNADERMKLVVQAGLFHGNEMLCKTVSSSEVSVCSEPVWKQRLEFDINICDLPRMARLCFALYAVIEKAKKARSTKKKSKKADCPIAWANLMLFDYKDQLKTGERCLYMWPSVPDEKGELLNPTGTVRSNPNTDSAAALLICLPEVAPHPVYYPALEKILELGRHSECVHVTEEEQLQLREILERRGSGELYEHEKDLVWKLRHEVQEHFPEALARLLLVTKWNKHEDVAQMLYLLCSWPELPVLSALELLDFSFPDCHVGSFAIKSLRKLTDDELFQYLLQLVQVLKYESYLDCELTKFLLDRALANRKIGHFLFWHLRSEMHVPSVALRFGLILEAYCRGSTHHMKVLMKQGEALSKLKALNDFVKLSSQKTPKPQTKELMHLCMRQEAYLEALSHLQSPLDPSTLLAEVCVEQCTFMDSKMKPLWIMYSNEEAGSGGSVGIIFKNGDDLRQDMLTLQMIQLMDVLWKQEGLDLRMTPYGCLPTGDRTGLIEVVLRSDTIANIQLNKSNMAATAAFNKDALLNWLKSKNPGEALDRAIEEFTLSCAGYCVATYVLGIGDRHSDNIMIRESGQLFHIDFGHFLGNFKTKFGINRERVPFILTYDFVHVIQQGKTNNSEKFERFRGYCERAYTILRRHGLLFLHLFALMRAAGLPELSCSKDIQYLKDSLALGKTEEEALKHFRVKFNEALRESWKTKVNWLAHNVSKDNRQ
UniProt P42338, whole entry: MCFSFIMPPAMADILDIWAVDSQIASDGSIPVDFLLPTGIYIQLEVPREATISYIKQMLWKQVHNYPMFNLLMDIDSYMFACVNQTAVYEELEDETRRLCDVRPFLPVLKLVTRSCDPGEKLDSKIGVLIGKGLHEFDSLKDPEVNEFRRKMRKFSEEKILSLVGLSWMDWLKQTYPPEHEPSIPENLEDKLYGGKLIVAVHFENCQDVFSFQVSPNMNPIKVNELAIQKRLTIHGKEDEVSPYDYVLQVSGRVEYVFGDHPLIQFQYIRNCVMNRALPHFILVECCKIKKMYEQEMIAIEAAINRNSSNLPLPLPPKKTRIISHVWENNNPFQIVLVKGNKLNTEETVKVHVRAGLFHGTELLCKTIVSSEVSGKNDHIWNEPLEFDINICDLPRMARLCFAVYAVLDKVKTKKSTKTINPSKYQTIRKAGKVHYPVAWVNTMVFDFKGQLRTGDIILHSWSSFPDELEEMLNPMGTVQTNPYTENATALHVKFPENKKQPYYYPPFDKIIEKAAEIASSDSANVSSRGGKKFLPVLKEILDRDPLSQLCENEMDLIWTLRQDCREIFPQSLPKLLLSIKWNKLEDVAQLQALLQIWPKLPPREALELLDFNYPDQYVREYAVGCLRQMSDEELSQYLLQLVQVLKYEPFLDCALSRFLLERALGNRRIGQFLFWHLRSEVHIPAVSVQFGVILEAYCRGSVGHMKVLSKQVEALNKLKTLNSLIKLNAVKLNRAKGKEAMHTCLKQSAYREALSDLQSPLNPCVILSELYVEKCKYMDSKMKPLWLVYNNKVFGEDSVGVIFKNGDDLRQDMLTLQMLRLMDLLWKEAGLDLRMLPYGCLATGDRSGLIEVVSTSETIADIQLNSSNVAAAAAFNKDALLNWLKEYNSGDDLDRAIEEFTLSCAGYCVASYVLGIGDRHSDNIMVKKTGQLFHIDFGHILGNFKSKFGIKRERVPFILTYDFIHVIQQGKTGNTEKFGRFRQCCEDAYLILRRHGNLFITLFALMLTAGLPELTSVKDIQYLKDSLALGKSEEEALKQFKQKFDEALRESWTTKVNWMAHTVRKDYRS
UniProt P48736, whole entry: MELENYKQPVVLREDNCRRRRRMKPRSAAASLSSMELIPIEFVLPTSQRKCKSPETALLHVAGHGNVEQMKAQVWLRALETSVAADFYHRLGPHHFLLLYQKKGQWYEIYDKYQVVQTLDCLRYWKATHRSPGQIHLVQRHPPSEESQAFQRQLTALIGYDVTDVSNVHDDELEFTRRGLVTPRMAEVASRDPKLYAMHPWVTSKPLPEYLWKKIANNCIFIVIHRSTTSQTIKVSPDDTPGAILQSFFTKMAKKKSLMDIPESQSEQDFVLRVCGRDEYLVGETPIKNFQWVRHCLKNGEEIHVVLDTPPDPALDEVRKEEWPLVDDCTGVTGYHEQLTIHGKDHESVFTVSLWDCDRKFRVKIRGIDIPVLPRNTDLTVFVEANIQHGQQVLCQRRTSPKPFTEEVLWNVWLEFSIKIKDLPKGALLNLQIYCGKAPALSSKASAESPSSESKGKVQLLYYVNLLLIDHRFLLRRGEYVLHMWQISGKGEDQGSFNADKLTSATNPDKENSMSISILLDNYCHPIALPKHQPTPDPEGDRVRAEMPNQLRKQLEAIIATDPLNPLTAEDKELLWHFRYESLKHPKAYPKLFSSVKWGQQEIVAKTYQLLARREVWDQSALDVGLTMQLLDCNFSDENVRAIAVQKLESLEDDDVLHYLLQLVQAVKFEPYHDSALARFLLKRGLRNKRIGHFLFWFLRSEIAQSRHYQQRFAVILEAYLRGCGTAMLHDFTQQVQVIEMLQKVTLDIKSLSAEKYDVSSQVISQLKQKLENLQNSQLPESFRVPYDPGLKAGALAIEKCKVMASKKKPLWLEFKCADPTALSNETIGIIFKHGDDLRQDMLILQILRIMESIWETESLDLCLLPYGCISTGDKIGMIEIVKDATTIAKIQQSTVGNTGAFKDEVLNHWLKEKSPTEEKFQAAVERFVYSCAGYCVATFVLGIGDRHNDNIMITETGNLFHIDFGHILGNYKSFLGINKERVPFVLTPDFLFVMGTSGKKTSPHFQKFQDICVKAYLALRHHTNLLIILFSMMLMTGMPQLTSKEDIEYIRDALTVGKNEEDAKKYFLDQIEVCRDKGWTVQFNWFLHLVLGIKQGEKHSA
UniProt Q63787, whole entry partner: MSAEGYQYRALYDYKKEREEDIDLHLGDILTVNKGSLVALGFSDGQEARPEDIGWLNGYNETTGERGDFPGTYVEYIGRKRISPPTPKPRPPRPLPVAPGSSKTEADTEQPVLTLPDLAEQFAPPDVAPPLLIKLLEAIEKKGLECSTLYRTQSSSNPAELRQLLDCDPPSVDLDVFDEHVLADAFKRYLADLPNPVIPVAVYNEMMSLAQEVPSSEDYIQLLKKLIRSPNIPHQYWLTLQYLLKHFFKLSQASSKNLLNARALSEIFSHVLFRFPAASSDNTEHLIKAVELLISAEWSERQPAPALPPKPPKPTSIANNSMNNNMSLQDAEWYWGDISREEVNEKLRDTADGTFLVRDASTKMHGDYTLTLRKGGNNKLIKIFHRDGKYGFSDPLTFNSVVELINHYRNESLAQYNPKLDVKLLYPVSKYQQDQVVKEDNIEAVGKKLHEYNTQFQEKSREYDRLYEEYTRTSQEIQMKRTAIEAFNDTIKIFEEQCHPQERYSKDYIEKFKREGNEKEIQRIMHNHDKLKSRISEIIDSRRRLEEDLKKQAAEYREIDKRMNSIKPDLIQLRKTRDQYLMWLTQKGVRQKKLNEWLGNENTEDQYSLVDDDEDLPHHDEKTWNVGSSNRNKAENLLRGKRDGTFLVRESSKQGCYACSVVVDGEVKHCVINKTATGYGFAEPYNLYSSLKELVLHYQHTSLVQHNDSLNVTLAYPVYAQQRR

Key:
[1] = molecular target: human PI3Kalpha p110 catalytic subunit (Rat-1 pBABEpuro Myr-HA-hp110alpha) (Homo sapiens, UniProt P42336); assay: Cellular assay PI3Kalpha (p-Akt(S473) SureFire, Rat-1_PI3Kalpha cells); assay type: cell-based; conditions: 1 h compound treatment
[2] = molecular target: human PI3Kdelta p110 catalytic subunit (Rat-1 pBABEpuro Myr-HA-hp110 delta) (Homo sapiens, UniProt O00329); assay: Cellular assay PI3Kdelta (p-Akt(S473) SureFire, Rat-1_PI3Kdelta cells); assay type: cell-based; conditions: read-out: Rat1-PI3Kd/ IC50, 1 h compound treatment
mTOR = mTOR (Mus musculus, UniProt Q9JLN9); assay: Cellular assay mTOR (phospho-T389 S6K1 SureFire in TSC1-/- MEF cells); conditions: read-out: mTOR S6K(T389)_TSC1ko/ IC50
A2058 cells = assay: Cell cycle G2/M arrest Cytospin assay to detect tubulin binding (off-target); conditions: 5 μM test item, 24 hours
[3] = molecular target: human PI3Kbeta p110 catalytic subunit (Rat-1 pBABEpuro Myr-HA-hp110 beta) (Homo sapiens, UniProt P42338); assay: Cellular assay PI3Kbeta (p-Akt(S473) SureFire, Rat-1_PI3beta cells); assay type: cell-based; conditions: read-out: Rat1-PI3Kb/ IC50, 1 h compound treatment
PI3Kgamma = PI3Kgamma (Homo sapiens, UniProt P48736); assay: Biochemical PI3Kgamma (TR-FRET Adapta Universal Kinase Assay); conditions: read-out: PIK3g/ IC50, mean of n measurements

## Nc1cc(C(F)(F)F)c(-c2cc(N3CCCCC3=O)nc(N3CCOCC3)n2)cn1
[1]
  Rat1-PI3Ka/ IC50: 0.460 umol I-1
[2]
  IC50: 1030 nM
mTOR
  IC50: 2120 nM
A2058 cells
  Score (condensed DNA, G2/M arrest; off-target tubulin binding): 0

## Nc1ncc(-c2cc(N3CCOCC3)nc(N3CCOCC3)n2)c(C(F)(F)F)n1
[2]
  IC50: 238 nM
mTOR
  IC50: 1000 nM
A2058 cells
  Score (condensed DNA, G2/M arrest; off-target tubulin binding): 3

## Nc1cc(C(F)(F)F)c(-c2cc(N3CCC(=O)CC3)nc(N3CCOCC3)n2)cn1
mTOR
  IC50: > 2270 nM
A2058 cells
  Score (condensed DNA, G2/M arrest; off-target tubulin binding): 0

## Nc1cc(C(F)(F)F)c(-c2cc(N3CCN(c4ccccc4)C3=O)nc(N3CCOCC3)n2)cn1
[1]
  Rat1-PI3Ka/ IC50: 0.669 umol I-1
[2]
  IC50: 1290 nM
mTOR
  IC50: > 2270 nM
A2058 cells
  Score (condensed DNA, G2/M arrest; off-target tubulin binding): 0

## Nc1cc(C(F)(F)F)c(-c2cc(N3CCS(=O)(=O)CC3)nc(N3CCOCC3)n2)cn1
[1]
  Rat1-PI3Ka/ IC50: 1.770 umol I-1
[3]
  IC50: 8220 nM
mTOR
  IC50: > 2270 nM
A2058 cells
  Score (condensed DNA, G2/M arrest; off-target tubulin binding): 0

## Nc1cc(C(F)(F)F)c(-c2cc(N3CCOC(c4ccccc4)C3)nc(N3CCOCC3)n2)cn1 (stereo not shown)
PI3Kgamma
  IC50: > 9100 nM
[1]
  Rat1-PI3Ka/ IC50: 1.247 umol I-1
[3]
  IC50: 4040 nM
mTOR
  IC50: > 2270 nM
A2058 cells
  Score (condensed DNA, G2/M arrest; off-target tubulin binding): 0
